What was measured:
Format in all cases: in vivo, mouse
[1] = Spectrophotometric analysis of bioavailable ferrous iron in SN tissue
Description: Levels of ferrous iron available to bind ferrozine were determined in dissected SN tissue spectrophotometrically at 578 nm as previously described (Agrawal et al. (2001) Toxicology 168: 223-230).

[2] = Ferric iron histochemistry (Perls) in SN; settings: transgenic vs. wild-type
Description: Coronal sections from brains of adult animals were subjected to formalin fixation and Perls staining using potassium ferrocyanide as previously described (Hill and Switzer (1984) Neurosci. 11: 595-603). The percentage area covered by ferric-ferrocyanine product was assessed by Camera Luminace Drawing.

[3] = system: MPTP-induced oxidative stress; test: ROS by DCF fluorescence in SN after MPTP; settings: transgenic animals, MPTP 30 mg/kg i.p., 8 hrs, n=8
Description: Animals were i.p. injected with either 30 mg/kg body weight MPTP or saline. Eight hours following injection, synaptosomal fractions were prepared from the SN and used for DCF analysis (Ali et al. (1992) Neurotoxicol,. 13: 637-648). Fluorescence was monitored on a Turner spectrofluorometer with an excitation wavelength of 448 mm and an emission wave length of 525 nm. Protein was normalized by the Bradford method.

[4] = system: MPTP-induced dopaminergic SN cell loss; test: Stereological TH+ SN neuron counts after MPTP; settings: ferritin transgenics, n=7
Description: Neuronal counts were performed on TH+ positive SN neurons using the unbiased dissector method (West (1993) Neurobiol. Aging 14: 275-285). Fixed coronal brain sections (40 μm) were immunostained with TH antibody (1:500 dilution, Chemicon), coverslipped in aqueous medium and TH+ cells counted from a total of 15-20 sections in each field per brain (i.e. every second section) at a magnification of 100× using the optical fractionator approach.
(§1) Animals were injected with either 15 mg/kg body weight MPTP or saline every 2 hrs, 4 doses. Dopamine, DOPAC, and HVA or MPP+ from dissected striata were analyzed by I-PLC using a 5 micrometer C-18 reverse phase column and precolumn (Brownlee Labs) followed by electrochemical detection with a glassy carbon electrode (Klivenyi et al. (2000) J. Neurosci. 20: 1-7).

[5] = SN ferritin-bound ferric iron by MRI in pTH-ferritin transgenics; settings: n=4
Description: Mice were housed according to standard animal care protocols, fed ad libitum, kept on a 12-hr light/dark cycle and maintained in a pathogen-free environment in the Buck Institute Vivarium. Animals used for studies were young adults (2-6 months of age). Ferritin transgenic mice were generated via injection of an 8.3 kb Hind III DNA fragment containing 4.8 kb of 5′ upstream sequences from the rat TH gene (Banjeree et al. (1992) J. Neurosci. 12:4460-4467), 2.6 kb of human genomic ferritin DNA encompassing the 4 coding region exons (Hentze et al., 1986), and 3′ SV40 splice and poly-adenylation sequences into fertilized B6D2 mouse embryos to create pTH-ferretin transgenic founder animals. For CQ studies, C57B1 mice were obtained from Jackson Labs and randomized for therapy trials. CQ was suspended in 0.05% carboxymethylcellulose (Sigma) and delivered via oral gavage at a daily dosage of 30 mg/kg as previously described for a period of 8 weeks (Cherny et al. (2001) Neuron 30: 665-676); controls received vehicle alone.
MRI studies were performed using a Bruker AMX500 11.7 tesla MRI system as previously described (Gilissen et al. (1998) Am. J. Primatol. 45: 291-299). Brains were fixed as described above and MRI performed in the coronal plane. […]

[6] = system: MPTP-induced toxicity; test: Striatal dopamine, DOPAC and HVA by HPLC after MPTP; settings: ferritin transgenics, n=5
Description: as §1

[7] = Open field analysis of spontaneous motor activity; settings: ferritin animals, n=6-8
Description: Ferritin transgenics vs. wild type littermates and CQ-fed vs. saline-fed animals used for open field behavioral studies were 2-5 months of age. 6-8 mice in each category were tested. Behavioral parameters were monitored in a Coulbourn Instrument Tru Scan activity monitor. Motor activities were recorded every 100 ms for a 10 minute period. Tru Scan 99 software was used to generate experimental protocols and to acquire and store the data. The data was exported to EXCEL and analyzed via one way ANOVA.

[8] = system: MPTP-induced oxidative stress; test: SN GSH levels after MPTP; settings: ferritin transgenics, n=8
Description: Following MPTP or saline injection, GSH levels were measured in the SN by the method of Griffith (Griffith (1980) Anal. Biochem. 106; 207-212).

Substance: ferritin: human ferritin heavy subunit, iron-binding protein, transgenically expressed in dopaminergic SN neurons of mice under rat TH promoter
- Bioavailable SN ferrous iron level ([1]; Tg, n=4): 2.7±0.13 μg/g SN tissue
- Decrease in bioavailable SN ferrous iron levels ([1]; ferritin transgenic SN vs. wild-type): 22%±9.8
- Increase in numbers of Perls-positive SN cells [2]: 22.4%±4.7
- ROS levels in SN after MPTP [3]: 95±4.0%
- TH+ SN cell numbers ([4]; MPTP-treated, 7 days): 10,500±700
- TH+ SN cell numbers ([4]; saline-treated): 11,100±600
- Increase in MRI signal intensity, transgenic vs. wild-type [5]: 33.7%±8.5
- Striatal DA ([6]; MPTP-treated): 95.0±0.8 ng/mg protein
- Striatal DOPAC ([6]; MPTP-treated): 7.0±01.0 ng/mg protein
- Striatal HVA ([6]; MPTP-treated): 9.0±0.7 ng/mg protein
- Striatal DA ([6]; saline-treated): 105±3.0 ng/mg protein
- Striatal DOPAC ([6]; saline-treated): 10.0±0.54 ng/mg protein
- Striatal HVA ([6]; saline-treated): 10.5±0.6 ng/mg protein
- Adverse behavioral effects in 12 motor activity assays (open field) [7]: No adverse behavioral effects
- Change in SN GSH after MPTP ([8]; 2 hrs): +1.0±0.5%
- Change in SN GSH after MPTP ([8]; 8 hrs): +0.5±0.3%

From patent US20040101521A1, “Iron sequestration or elimination to reduce neurodegeneration or Parkinsons disease progression” (The Buck Institute for Research on Aging, priority 2002, published 2004)
